From US4843066A, “Novel adenosine derivatives and pharmaceutical composition containing them as an active ingredient” (priority 1986, dated 1989) come the findings set out here.

For orientation: LD50 means the dose expected to kill half of the subjects tested. Read a low LD50 as a more toxic substance.

The nature of the data set: in vivo. To be noted: mouse, oral, in 0.5% C.M.C., ddY male mice, death rate for 7 days.

Compound `CNc1ncnc2c1ncn2[C@@H]1O[C@H](CO)[C@@H](O)[C@H]1OC` [Compound 17, N^6-2'-O-dimethyladenosine] displayed an LD50 at 168 h of 1000 to 2000 mg/kg.
